Reference: PMC11305387, “AlphaFold accelerated discovery of psychotropic agonists targeting the trace amine–associated receptor 1” (Science Advances, 2024)

Chains of the proteins cited; added tags and fusions are not shown.
UniProt Q96RJ0, whole entry: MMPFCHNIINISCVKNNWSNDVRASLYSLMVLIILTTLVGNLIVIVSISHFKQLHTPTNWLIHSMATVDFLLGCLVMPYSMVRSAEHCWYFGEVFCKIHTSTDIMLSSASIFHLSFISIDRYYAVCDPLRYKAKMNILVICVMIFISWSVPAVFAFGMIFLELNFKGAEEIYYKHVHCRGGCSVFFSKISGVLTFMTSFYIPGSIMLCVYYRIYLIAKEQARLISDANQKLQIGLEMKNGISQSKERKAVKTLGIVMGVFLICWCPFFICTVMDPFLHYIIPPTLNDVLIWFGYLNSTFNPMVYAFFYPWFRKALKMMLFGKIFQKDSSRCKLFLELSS

Molecular target: human TAAR1 (Homo sapiens, UniProt Q96RJ0)
Assay: G protein (mini-Gs) recruitment luminescence complementation assay, agonist mode
Type: cell-based

Compound	pEC50	pEC50 (tested form: HCl)
CC1=C(c2cocn2)CNCC1	6.2	
c1cc(C2CNCCO2)co1 (stereo not shown)	6.7	
C1=C(c2ccoc2)CNCC1		7.5
CC1=C(c2cnco2)CNCC1	5.8	

Like-named read-outs stand apart in the source and are kept apart here.
